Measurements from US20100249205A1 (ARIZONA BOARD OF REGENTS, priority 2005, published 2010).

Experiments:
PI-3 kinase = format: biochemical; settings: read-out: PI-3 kinase inhibition IC50
C57BL6 mice = assay: In-vivo toxicity in mice, intraperitoneal daily for 4 days; settings: percent decrease in lymphocyte counts relative to wortmannin as 1.0; at maximum tolerated dose or highest dose tested
Description: The proliferation of cells may be dependent on the PI-3 kinase-Akt-mTOR signaling pathway. In addition, signaling through PI-3 kinase and Akt appears to inhibit apoptosis. […] The MTT assay is a standard colorimetric assay for measuring cellular proliferation (cell growth). It is universally used to determine cytotoxicity of potential medicinal agents and other toxic materials. Yellow MTT (3-(4,5-Dimethylthiazol-2-yl)-2,5-diphenyltetrazolium bromide) is reduced to purple formazan in the mitochondria of living cells. This reduction takes place only when mitochondrial reductase enzymes are active, and therefore conversion is directly related to the number of viable (living) cells. […] Toxicities are measured at the maximum tolerated dose or the highest dose tested. […] Alanine aminotranferease (ALT) and aspartate aminotransferase (AST) are enzymes located in liver cells that leak out into the general circulation when liver cells are injured. […] A low liver toxicity and a high lymphocyte toxicity as a surrogate for inhibition of tumor cell growth is the desirable feature.

| SMILES | IC50 (PI-3 kinase) | Lymphocyte toxicity relative to wortmannin (C57BL6 mice) |
| --- | --- | --- |
| COC[C@H]1OC(=O)c2coc3c2[C@@]1(C)C1=C(C3=O)[C@@H]2CCC(=O)[C@@]2(C)C[C@H]1OC(C)=O [Wortmannin, wortmannin, reference compound] | 0.3 nM | – |
| COCC1OC(=O)C(=CN2CCCC2)C2=C(O)C(=O)C3=C(C(OC(C)=O)CC4(C)C(=O)CCC34)C21C (stereo not drawn) [PX-867, Acetic acid 6-hydroxy-1α-methoxymethyl-10β,13β-dimethyl-3,7,17-trioxo-4-pyrrolidin-1-yl-methylene-1,3,4,7,10,11β,12,13,14α,15,16,17-dodecahydro-2-oxa-cyclopenta[α]phenanthren-11-yl] | – | 2.4 |
